Key:
USP7 = USP7 (Homo sapiens, UniProt Q93009); test: USP7 degradation in CRBN knockout CAL33 cells; type: cell-based; settings: CRBN KO CAL33 cells, 2.5 μM, 72 h
Method: To investigate the mechanism of action of PU7-1, CRBN knockout (KO) CAL33 cell line was generated using CRISPR-Cas9 technology. Control and CRBN KO cells were treated with 2.5 μM of PU7-1 for 72 h and then the expression levels of USP7 and CRBN proteins were detected by western blot analysis. CRBN protein was undetectable in the KO cells (FIG. 3H). […] CAL33 cells were first treated with 5 μM of PU7-1 for 48 h to degrade the USP7 proteins, and then treated with 5 μM of MLN4924, 25 μM of Chloroquine (CLQ) or 5 μM of MG132 for additional 24 h.
For CRBN knockout cell line, the plenti-px330-CRBN-T1-pGK-Pur construct was purchased from Addgene. HEK293 cells were transiently transfected with plenti-px330-CRBN-T1-pGK-Pur, VSVG and Δ8.9 constructs for lentivirus packaging. Viruses were harvested at 48 h post-transfection. CAL33 cells were transfected with CAS9 constructs and infected with lentiviral particles, and then selected with 1 μg/ml puromycin. CRBN knockout clones were identified by western blot using CRBN specific antibody.

The chains behind the UniProt entries cited, without tags or fusion partners.
UniProt Q93009, whole entry: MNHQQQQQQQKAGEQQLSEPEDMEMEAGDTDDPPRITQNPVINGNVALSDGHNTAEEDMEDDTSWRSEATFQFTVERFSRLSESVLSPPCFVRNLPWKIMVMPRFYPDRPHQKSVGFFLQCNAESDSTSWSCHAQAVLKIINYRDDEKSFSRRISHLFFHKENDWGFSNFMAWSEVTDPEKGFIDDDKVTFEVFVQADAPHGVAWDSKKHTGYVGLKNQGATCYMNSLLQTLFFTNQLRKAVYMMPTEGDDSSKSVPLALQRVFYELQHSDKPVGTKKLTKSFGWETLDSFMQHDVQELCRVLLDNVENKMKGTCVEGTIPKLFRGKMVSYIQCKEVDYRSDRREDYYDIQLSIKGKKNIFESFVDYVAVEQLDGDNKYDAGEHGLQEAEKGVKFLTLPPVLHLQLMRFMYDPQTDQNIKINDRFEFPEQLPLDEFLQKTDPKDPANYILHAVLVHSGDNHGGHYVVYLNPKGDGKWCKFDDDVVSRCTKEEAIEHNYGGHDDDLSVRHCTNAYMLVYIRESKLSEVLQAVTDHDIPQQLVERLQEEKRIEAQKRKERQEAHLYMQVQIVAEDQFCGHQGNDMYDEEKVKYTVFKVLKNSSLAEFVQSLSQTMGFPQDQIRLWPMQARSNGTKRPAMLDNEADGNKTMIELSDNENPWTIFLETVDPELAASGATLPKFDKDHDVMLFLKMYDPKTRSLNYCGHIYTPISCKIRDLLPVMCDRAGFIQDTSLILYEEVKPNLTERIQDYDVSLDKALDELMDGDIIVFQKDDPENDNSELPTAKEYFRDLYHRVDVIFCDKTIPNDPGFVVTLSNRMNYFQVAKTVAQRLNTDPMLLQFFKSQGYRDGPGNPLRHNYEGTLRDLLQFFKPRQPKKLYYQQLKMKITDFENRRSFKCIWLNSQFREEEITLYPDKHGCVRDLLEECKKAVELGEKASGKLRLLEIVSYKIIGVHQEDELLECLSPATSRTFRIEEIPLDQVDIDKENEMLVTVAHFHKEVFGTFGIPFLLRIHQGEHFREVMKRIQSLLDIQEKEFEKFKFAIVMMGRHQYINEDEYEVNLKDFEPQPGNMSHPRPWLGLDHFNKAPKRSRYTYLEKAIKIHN

[1] = test system: MDA-MB-468 FOXM1 overexpression cells xenografts; test: MDA-MB-468 FOXM1 overexpression xenograft mouse model; type: in vivo, nude mice; settings: doxycycline diet, 37.5 mg/kg intraperitoneally
Source text: To investigate if PU7-1-mediated effects in TNBC depend on FOXM1, it was first attempted to establish a FOXM1 crispr knockout cell line. Unfortunately, it was not possible to generate the FOXM1 knockout cell line, likely because FOXM1 is an essential gene for cell survival. […] Alternatively, an inducible FOXM1 overexpression cell line was generated in MDA-MB-468 cells (MDA-MB-468 FOXM1 cells). Doxycycline induces high levels of FOXM1 expression in MDA-MB-468 FOXM1 overexpression cells (FIG. 6A). The effects of PU7-1 on cell proliferation were compared in control and doxycycline-treated MDA-MB-468 FOXM1 cells using BrdU incorporation assay. […] Next, the role of FOXM1 in PU7-1-induced tumor suppression was tested. MDA-MB-468 FOXM1 overexpression cells were subcutaneously inoculated into 6-8-week female nude mice fed with doxycycline diet at the dosage of 625 mg/kg to induce exogenous FOXM1 expression. On day 7 after inoculation, mice were randomly separated into two groups. At the endpoint, tumors were dissected, weighed, and photographed. […] For xenograft mouse model, 2×10^6 MDA-MB-468 cells were mixed with Matrigel (Corning, #354248) at a 1:1 ratio (Volume) and injected subcutaneous into 6-8-week-old female nude mice (Charles River, #088). […]

p53 pathway = test: USP7 levels and p53 pathway (p53, p21) immunoblots in cancer cells harboring wild-type p53; type: cell-based; settings: human cancer cells harboring wild-type p53, 10 μM, 72 h
Method: FIG. 11A show human cancer cells harboring wildtype p53 treated with or without 10 μM of PU7-1 for 72 h. The protein levels of p53 and its target p21 were detected by immunoblotting.
To specifically degrade USP7, a set of 66 PROTAC compounds were designed and synthesized that contain an USP7 specific binding moiety XL177A and an E3 ubiquitin ligase (CRBN or VHL) binding moiety connected by different linkers. All putative USP7 PROTACs were used to treat CAL33 cells that express high levels of USP7 protein, and then the USP7 protein levels were determined by western blot (FIGS. 10A and 10B). Through initial screening, PU7-1 was identified as a potential USP7 degrader (FIG. 3A and FIG. 10). […] The effect of PU7-1 was also tested in several human cancer cells harboring wild-type p53. […] In addition, to exclude the possibility that PU7-1 affects the USP7 protein levels by regulating its transcription, a quantitative real-time PCR was performed in CAL33 treated with PU7-1 for 72 h. […] In addition, the half-life of USP7 protein was examined in CAL33 cells in the presence or absence of PU7-1 treatment. […]
Cells were lysed in FLAG lysis buffer (50 mM Tris-HCl (pH 7.3), 137 mM NaCl, 10 mM NaF, 0.5 mM EDTA, 1% Triton X-100, 0.2% Sarkosyl, 10% glycerol) freshly supplemented with protease inhibitor cocktail. Protein concentration was determined by the Bio-Rad protein assay. […]

## O=C1CCC(N2Cc3c(CCCCCN4CCN(CCC(=O)Nc5ccc6c(=O)n(CC7(O)CCN(C(=O)C(CCCNC(=O)c8ccc9c(Cl)c%10c(nc9c8)CCCC%10)Cc8ccccc8)CC7)cnc6c5)CC4)cccc3C2=O)C(=O)N1 (stereo not drawn)
USP7
  USP7 degradation under CRBN depletion: completely abrogated
[1]
  tumor sizes and weights versus control: no significant difference
p53 pathway
  USP7 protein levels and p53 pathway: effectively reduced USP7 protein levels and activated p53 pathway
